Row | CL1 (rat, in vivo, iv) [L/h/kg] | V2 (GHI-L (GHI 2.5 mL/kg, i.v.), MI/R rats, plasma, n = 6) [L/kg] | Compound
1 | 1.133 ± 0.122 | – | CC(=O)N[C@@H](CCC(N)=O)C(=O)O [N-acetyl-L-glutamine]
2 | – | 1.671 ± 0.12 | C[C@@H]1O[C@@H](OC[C@H]2O[C@@H](Oc3c(-c4ccc(O)c(O)c4)oc4cc(O)cc(O)c4c3=O)[C@H](O)[C@@H](O)[C@@H]2O)[C@H](O)[C@H](O)[C@H]1O [Rutin, rutin]

Source: PMC10962654 (Journal of Food and Drug Analysis, 2023)
